# Results as given in US20230077723A1, “N-SUBSTITUTED-3,4-(FUSED 5-RING)-5-PHENYL-PYRROLIDINE-2-ONE COMPOUNDS AS INHIBITORS OF ISOQC AND/OR QC ENZYME” (Scenic Immunology B.V., priority 2019, published 2023).
# Protein sequences, listed by entry. Tags and fused reporters are not part of them. Residues count along the entry.
# UniProt Q16769, 33-361 limits assumed: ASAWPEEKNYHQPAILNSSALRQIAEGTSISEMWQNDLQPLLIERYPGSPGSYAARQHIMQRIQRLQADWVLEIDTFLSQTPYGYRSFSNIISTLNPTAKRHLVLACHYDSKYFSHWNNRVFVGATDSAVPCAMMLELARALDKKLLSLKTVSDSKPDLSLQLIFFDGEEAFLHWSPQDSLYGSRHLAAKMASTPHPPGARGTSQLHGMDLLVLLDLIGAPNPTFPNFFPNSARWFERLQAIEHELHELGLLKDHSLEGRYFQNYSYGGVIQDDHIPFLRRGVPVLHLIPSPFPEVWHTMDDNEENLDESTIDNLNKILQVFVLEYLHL
# UniProt Q16769, 29-361 limits assumed: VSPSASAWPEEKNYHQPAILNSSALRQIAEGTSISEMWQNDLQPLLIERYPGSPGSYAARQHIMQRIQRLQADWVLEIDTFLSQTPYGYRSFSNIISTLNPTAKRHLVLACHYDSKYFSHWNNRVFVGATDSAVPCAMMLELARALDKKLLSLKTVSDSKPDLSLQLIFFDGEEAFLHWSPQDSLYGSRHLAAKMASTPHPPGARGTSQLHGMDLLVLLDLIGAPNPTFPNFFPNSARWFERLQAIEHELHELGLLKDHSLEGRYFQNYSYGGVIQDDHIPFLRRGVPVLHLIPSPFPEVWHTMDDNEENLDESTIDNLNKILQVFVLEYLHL
# UniProt Q9NXS2, 53-382 limits assumed: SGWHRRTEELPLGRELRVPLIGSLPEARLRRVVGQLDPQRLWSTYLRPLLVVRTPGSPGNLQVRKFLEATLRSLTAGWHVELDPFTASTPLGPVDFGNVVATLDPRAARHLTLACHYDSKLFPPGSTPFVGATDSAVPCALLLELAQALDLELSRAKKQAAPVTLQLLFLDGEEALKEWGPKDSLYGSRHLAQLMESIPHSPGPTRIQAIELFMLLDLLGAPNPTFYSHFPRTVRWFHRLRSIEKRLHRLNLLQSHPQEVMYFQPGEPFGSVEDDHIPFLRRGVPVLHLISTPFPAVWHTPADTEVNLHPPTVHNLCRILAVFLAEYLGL
# Legend:
# [1] = target: recombinant human QC (Homo sapiens, UniProt Q16769); experiment: Assay 4 - QC potency, mass spectrometry-based enzymatic potency assay; conditions: read-out: QC Pot. Assay No. 4
# Description: (§1) EC50's of test compounds were determined by incubating 11-point two-fold dilutions of test compound in 20 μL volumes in the presence of 7.5 nM isoQC and 10 μM H-Gln-AMC using 50 mM Tris-HCl pH 8.0 as assay buffer for 2 hours at room temperature before stopping the reaction by the addition of 2 volumes of methanol. Both the substrate and the product of this reaction were read out using an Agilent RapidFire microfluidic solid phase sample extraction system coupled to an AB Sciex API 4000 triple quadrupole mass spectrometer, in negative ion mode, at m/z of 301.9 and 284.9 respectively. The actual readout was defined as P/(S+P), where P is the product signal area and S the substrate signal area. EC50's were calculated by four parameter sigmoidal model fitting.
# EC50's of test compounds were determined in the same way as described in Assay 2 above, except that N-terminally His6-tagged recombinant human QC (R&D Systems) was used instead of isoQC.
# [2] = target: T1, human isoQC (S53-L382) (Homo sapiens, UniProt Q9NXS2); experiment: Assay 1 - isoQC inhibition, fluorescent enzymatic assay (single concentration); conditions: isoQC inhibition at 250 nM test compound
# Description: Initially, isoQC inhibitory activity was measured at a single concentration in a fluorescent-based assay (Assay 1 below). In order to establish the inhibitory activity more quantitatively, IC50 values were obtained using a mass spectrometry-based assay where pyroglutamylation by either isoQC or QC was measured (Assays 2 and 4, respectively, below). Alternatively, IC50 values for isoQC or QC were obtained using a fluorescence-based assay (Assays 3 and 5 respectively, below).
# (§2) The Golgi luminal, enzymatically active region of human isoQC (S53-L382; see, e.g., Huang et al., 2011) was obtained by expression in E. coli of an N-terminally GST-Enterokinase and C-terminally 6×His tagged construct in the pET41(+) vector and subsequent purification using talon beads and GST beads, enterokinase digestion and further purification with a final formulation in 25 mM Tris pH 8.0/150 mM NaCl/1 mM TCEP. Absence of pyroglutamylating activity in an enzymatic dead variant that was cloned, expressed, and purified in parallel ruled out that the purification strategy isolates any endogenously present pyroglutamylating activity.
# (§3) Pyroglutamylation was measured by conversion of glutamine-4-amino-7-methylcoumarine (H-Gln-AMC, Bachem) to pyroglutamyl-AMC, which is subsequently a specific substrate for pyroglutamylaminopeptidase (pGAPase, Qiagen), releasing free AMC which can be fluorescently detected. For a typical inhibition assay, 15 μL 20 μM h-Gln-AMC (diluted from a 40 mM stock dissolved in 25 mM HEPES using 50 mM Tris-HCl pH 8.0) was pipetted into a 96-well plate on ice. Next, 7.5 μL 1 μM test compound (diluted from a 10 mM stock dissolved in DMSO using 50 mM Tris-HCl) was added. Finally, 7.5 μL, 3 ng/μL recombinant isoQC enzyme was added and the reaction mixture was incubated for 1 hour at 37° C. A 5 minute incubation at 98° C. was then performed to denature the isoQC enzyme and stop the reaction.
# To detect the amount of pyroglutamyl-AMC formed, a 96-well plate was prepared with 25 μL 0.125 U/mL pGAPase enzyme diluted in 50 mM Tris-HCl pH 8.0 containing 10 mM dithiothreitol (DTT). 25 μL of the pyroglutamylation reaction mixture was transferred into the plate containing the pGAPase solutions while on ice. Once done, the plate was moved over to a Spectramax ID3 fluorescent plate-reader to monitor and record the maximum fluorescence at 380 nm excitation/450 nm emission over a period of 20 minutes while keeping the temperature at 37° C.
# DMSO concentrations during the assay never exceeded 1% and activities were compared to controls containing only the same amount of DMSO and no test compound. […] Test compounds were reported as active when <40% of background corrected signal was measured as compared to DMSO controls.
# [3] = target: T1, human isoQC (S53-L382); experiment: Assay 2 - isoQC potency, mass spectrometry-based enzymatic potency assay; conditions: read-out: isoQc Pot. Assay No. 2, 7.5 nM isoQC, 10 μM H-Gln-AMC
# Description: as §2, §1
# [4] = system: pyroglutamylated CD47 (pE-CD47) in KBM7 cells; experiment: Assay 6 - cell-based potency assay (pE-CD47 CC2C6 staining vs total CD47); conditions: read-out: Cell Pot. Assay No. 6, 72 hours, CC2C6 signal
# Description: Cells were spun for 4 minutes at 1500 rpm and washed once with PBS/0.5% BSA. Cells were spun down again and the supernatant was removed and incubated in 100 uL antibody staining solution (PBS/0.5% BSA/0.1 μg/mL DAPI (4′,6-diamidino-2-phenylindole, ThermoFisher Scientific) and a mixture of 1:500 FITC-conjugated anti-human CD47 clone 2D3, which recognizes total CD47 irrespective of its pyroglutamylation state, and 1:500 Alexa647-conjugated anti-human CD47 clone CC2C6, which specifically detects pyroglutamylated CD47) for 2 hours at 4° C. Next, the cells were spun down and washed twice with 2×150 μL PBS/0.5% BSA to remove unbound antibody. Cells were again spun down and taken up in 300 μL FACS buffer before analysis on a Celesta FACS machine (BD Biosciences).
# KBM7 cells (Kotecki et al., 1999) were infected with lentivirus produced by transfecting pSCNC-LentiCRISPR-QPCTL or pSCNC-LentiCRISPR-CD47 into HEK-293T cells according to standard protocols. After 24 hours incubation, cells were selected with puromycin (Invivogen, 1 μg/mL) for 48 hours. Cells were stained for total CD47 and pE-CD47 and QPCTL k.o. cells were sorted out as negative for pE-CD47, and CD47 k.o. cells as negative for total CD47, using a FACSAria III and FACS Diva software (BD Biosciences).
# In order to test compounds for their effect on pyroglutamylation in live cells, 25000 KBM7 cells per well were seeded in a 96-well U-bottom plate in 150 μl IMDM/10% FCS/1% Pen/Strep medium and a 10-point 2-fold dilution range of test compounds. After 72 hours incubation at 37° C., 5% CO2, cells were stained for total CD47 and pE-CD47 and analyzed on a BD Celesta using FACS Diva software (BD Biosciences). Cells gated for DAPI negativity were recorded and the median fluorescence intensity (MFI) of each sample was transformed to linearly scale between the MFI's of wildtype and CD47 knockout cells (in case of the 2D3 antibody) and the wildtype and QPCTL knockout cells (in case of the CC2C6 antibody). IC50's were calculated by 3 parameter logistic regression of the CC2C6 signal vs. compound concentration, where the top of the sigmoidal curve was fixed at 1, using R and the drc package (http://www.r-project.org, https://cran.r-project.org/web/packages/drc/index.html).
# [5] = target: T1, human isoQC (S53-L382); experiment: Assay 3 - isoQC potency, fluorescent enzymatic assay; conditions: read-out: isoQc Pot. Assay No. 3
# Description: For this assay specifically, isoQC production was performed slightly different than described in the general methods: The Golgi luminal, enzymatically active region of human isoQC (S53-L382; see, e.g., Huang et al., 2011) was obtained by expression in E. coli of an N-terminally GST Enterokinase and C-terminally 6×His tagged construct in the pET41(+) vector and subsequent purification using Ni-NTA IMAC. Enterokinase digestion ensued, followed by another Ni-NTA IMAC purification, Superdex75 based size exclusion and finally a spin concentration using a 10 kDa molecular weight cutoff. The final protein is formulated in 50 mM Tris-HCl, 150 mM NaCl, 50% Glycerol, pH 7.8.
# as §3, with “assay, 7.5 μL aliquots of threefold dilutions of test compound in 50 mM Tris pH8 buffer were plated in 384-well plates.” for “assay,”, “added to each well.” for “pipetted into a 96-well plate on ice. Next, 7.5 μL 1 μM test compound (diluted from a 10 mM stock dissolved in DMSO using 50 mM Tris-HCl) was added.”
# (§4) To detect the amount of pyroglutamyl-AMC formed, a 0.125 U/mL pGAPase enzyme diluted in 50 mM Tris-HCl pH 8.0 containing 10 mM dithiothreitol (DTT) solution was prepared. 25 μL of the pyroglutamylation reaction mixture was transferred into an empty plate and to that, 25 μL of the pGAPase enzyme solution was added. Plates were then incubated for 25 minutes at room temperature before fluorescence readings were taken on an Envision2 plate reader with excitation set at 380 nm and emission at 450 nm.
# (§5) DMSO concentrations during the assay never exceeded 1% and activities were compared to controls containing only the same amount of DMSO and no test compound. Controls were taken along containing pyroglutamylated-AMC (Bachem, dissolved at 10 mM in DMSO) instead of H-Gln-AMC to control for pGAPase inhibition. IC50 values are calculated using non-linear regression analysis with GraphPad Prism software.
# [6] = target: Recombinant QC enzyme (residues 33-361 of uniprot ID Q16769) (Homo sapiens, UniProt Q16769); experiment: Assay 5 - QC potency, fluorescent enzymatic assay; conditions: read-out: QC Pot. Assay No. 5
# Text: Recombinant QC enzyme was produced by bacterial expression of residues 33-361 of uniprot ID Q16769, fused to a His tag, codon optimized and cloned into the pET32a plasmid backbone. After scale-up, expression and lysis, protein was purified by Ni-NTA IMAC, dialysed in the presence of Factor Xa, further purified by Ni-NTA reverse IMAC and finally filtrated for size on a Superdex 200 16/60 column. Final protein was concentrated using a spin concentrator at 10 kDa molecular weight cutoff and formulated in 150 mM NaCl, 50 mM Tris-HCl, 50% Glycerol, pH 8.0.
# as §3, with “assay, 7.5 μL aliquots of threefold dilutions of test compound in 50 mM Tris pH8 buffer were plated in 384-well plates.” for “assay,”, “added to each well.” for “pipetted into a 96-well plate on ice. Next, 7.5 μL 1 μM test compound (diluted from a 10 mM stock dissolved in DMSO using 50 mM Tris-HCl) was added.”, “QC” for “isoQC”
# as §4
# as §5, with “inhibition.” for “inhibition. IC50 values are calculated using non-linear regression analysis with GraphPad Prism software.”
# IC50 values are calculated using non-linear regression analysis with GraphPad Prism software.
smiles,measurement,setting,value
"CCCOc1ccc(C2c3c(nn(C)c3C(C)C)C(=O)N2c2ccc3[nH]cnc3c2)cc1 (single isomer, unassigned)",IC50,[1],25 to 100 nM
same,isoQc Inh. Assay No. 1,[2],+ ((+) > 40% isoQC inhibition at 250 nM)
same,IC50,[3],25 to 100 nM
same,IC50,[4],< 1000 nM
"CCCOc1ccc(C2c3c(nn(C)c3C)C(=O)N2c2ccc3[nH]cnc3c2)c(F)c1 (single isomer, unassigned)",IC50,[1],25 to 100 nM
same,isoQc Inh. Assay No. 1,[2],+ ((+) > 40% isoQC inhibition at 250 nM)
same,IC50,[3],< 25 nM
same,IC50,[4],< 1000 nM
"Cc1c2c(nn1C)C(=O)N(c1ccc3[nH]cnc3c1)C2c1ccc(Br)cc1F (single isomer, unassigned)",IC50,[1],25 to 100 nM
same,isoQc Inh. Assay No. 1,[2],+ ((+) > 40% isoQC inhibition at 250 nM)
same,IC50,[3],< 25 nM
same,IC50,[4],< 1000 nM
"Cc1c2c(nn1C)C(=O)N(c1ccc3[nH]cnc3c1)C2c1ccc(OCCC(F)F)c(F)c1F (single isomer, unassigned)",IC50,[1],< 25 nM
same,isoQc Inh. Assay No. 1,[2],+ ((+) > 40% isoQC inhibition at 250 nM)
same,IC50,[3],< 25 nM
same,IC50,[4],< 1000 nM
"Cc1c2c(nn1C)C(=O)N(c1ccn3ccnc3c1)C2c1ccc(N2CCC(F)(F)C2)cc1F (single isomer, unassigned) [FRPPO-158B]",IC50,[5],100 to 5000 nM
same,IC50,[6],100 to 5000 nM
"Cc1c2c(nn1C)C(=O)N(c1ccn3ccnc3c1)C2c1ccc(N2CCC(F)(F)C2)cc1F (single isomer, unassigned) [FRPPO-158C]",IC50,[5],25 to 100 nM
same,IC50,[6],25 to 100 nM
"Cc1[nH]nc2c1C(c1ccc(N3CCC(F)(F)C3)cc1F)N(c1ccn3ccnc3c1)C2=O (single isomer, unassigned) [FRPPO-159B]",IC50,[5],100 to 5000 nM
same,IC50,[6],100 to 5000 nM
"Cc1[nH]nc2c1C(c1ccc(N3CCC(F)(F)C3)cc1F)N(c1ccn3ccnc3c1)C2=O (single isomer, unassigned) [FRPPO-159C]",IC50,[5],< 25 nM
same,IC50,[6],100 to 5000 nM
"Cc1c2c(nn1C)C(=O)N(c1ccn3ccnc3c1)C2c1ccc(-c2cnn(C(F)(F)F)c2)cc1F (single isomer, unassigned) [FRPPO-160B]",IC50,[5],100 to 5000 nM
same,IC50,[6],> 5000 nM
same,IC50,[4],5000 to 50000 nM
"Cc1c2c(nn1C)C(=O)N(c1ccn3ccnc3c1)C2c1ccc(-c2cnn(C(F)(F)F)c2)cc1F (single isomer, unassigned) [FRPPO-160C]",IC50,[5],< 25 nM
same,IC50,[6],< 25 nM
same,IC50,[4],< 1000 nM
"Cc1[nH]nc2c1C(c1ccc(-c3cnn(C(F)(F)F)c3)cc1F)N(c1ccn3ccnc3c1)C2=O (single isomer, unassigned) [FRPPO-162B]",IC50,[5],100 to 5000 nM
same,IC50,[6],100 to 5000 nM
"Cc1[nH]nc2c1C(c1ccc(-c3cnn(C(F)(F)F)c3)cc1F)N(c1ccn3ccnc3c1)C2=O (single isomer, unassigned) [FRPPO-162C]",IC50,[5],< 25 nM
same,IC50,[6],25 to 100 nM
same,IC50,[4],< 1000 nM
